Values of other authors in US9517233B2, “Local cochlear application of statins for stimulating neurite regrowth in the cochlea” (Northwestern University, priority 2012, dated 2016).
“Also recorded” adds a separate entry of the source.

System: spiral ganglion neurons
Conditions: cited from Lie et al. 2010 / Whitlon et al. 2006; cited from earlier work

Cc1cncc2cccc(S(=O)(=O)N3CCCNC[C@@H]3C)c12 [H1152, 4-methyl-5-{[(2S)-2-methyl-1,4-diazepan-1-yl]sulfonyl}isoquinoline]
stimulation of neurite growth from spiral ganglion neurons in vitro (literature): increases neurite length; also recorded: can stimulate neurite growth
